## AlphaSeq binding of Ab-14 light chain variants to a spike HR2 peptide

Target: peptide PDVDLGDISGINAS, taken from heptad repeat 2 (HR2) of SARS-CoV-2 spike.

Parent scFv Ab-14: VH joined to VL by the linker GGGGSGGGGSGGGGS. Changes lie in the light chain CDRs alone.
VH: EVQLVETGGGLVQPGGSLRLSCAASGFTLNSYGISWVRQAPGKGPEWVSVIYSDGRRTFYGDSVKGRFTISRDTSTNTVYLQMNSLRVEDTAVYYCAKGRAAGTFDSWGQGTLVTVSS
VL: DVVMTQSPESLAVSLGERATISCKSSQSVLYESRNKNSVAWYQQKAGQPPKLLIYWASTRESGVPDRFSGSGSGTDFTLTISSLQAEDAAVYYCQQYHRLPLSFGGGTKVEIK

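The parent was found by panning a naive human phage display library on the peptide. AAYL50 was designed without a model: most single CDR substitutions and a random sample of double and triple ones. AlphaSeq pools MATa yeast showing the antibodies with MATalpha yeast showing the peptide. The frequency of each diploid, read from paired DNA barcodes, reflects how well the two displayed proteins bind. Scores were corrected for input abundance and mapped to Kd with protein pairs of known affinity run in the same pool. There are three technical replicates.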

Each variant is given by its three light chain CDRs, as the data file delimits them; those of the parent are KSSQSVLYESRNKNSVA, WASTRES, QQYHRLPLS. Affinities are written as log10 Kd with Kd in nM; a lower number is a better binder. The mean shown is taken over the replicates in which the pair was detected. "no signal" means that the variant was in the library but no mating with the target was seen in any replicate; the authors take this as a sign of poor binding, and no number exists.

| CDR-L1 | CDR-L2 | CDR-L3 | mean, log10 nM | detected | signal with controls |
|---|---|---|---|---|---|
| KGSQSVLYESRNKNSVP | WASTRES | QQYHRLPLV | no signal | 0/3 | 1/9 |
| KSSQSVLYESRNKNSVA | WASTHES | QQLHHLPLS | no signal | 0/3 | 1/9 |
| KSSPSVLYESRNKNSVA | KASTRES | QQYHRLPPS | 0.97 | 3/3 | 0/9 |
| KSSQSVLYDSRNKNSVA | WASTRES | QNYHRMPLS | 2.58 | 2/3 | 1/9 |
| KSSQAVLYESRNKNSVA | WASTRES | QYYHRLCLS | 3.41 | 1/3 | 1/9 |
| KSQQSVLYESRNKNSVA | WASTRES | QQYHRLPLW | 1.50 | 3/3 | 2/9 |
| KSSQSVLYQSRNKNSVA | WASTRES | QQYFRYPLS | 1.55 | 3/3 | 2/9 |
| KSSQSVLCESRNKNLVA | WASTPES | QQYHRLPLS | no signal | 0/3 | 0/9 |
| PLSQSVLYESRNKNSVA | WASTRES | SQYHRLPLS | 5.99 | 1/3 | 2/9 |
| KSSQSVLYESRNKNSVA | WADTRES | QMYHELPLS | 4.16 | 2/3 | 0/9 |
| KSSQKVLYESFNKNSVA | NASTRES | QQYHRLPLS | -0.28 | 3/3 | 2/9 |
| KSSQSVLYTGRNKNSVA | WAFTRES | QQYHRLPLS | 2.59 | 3/3 | 5/9 |
| KSSQSVLYESRNKNSVA | WASTIES | QQYHRLPAS | 4.21 | 1/3 | 1/9 |
| KSDQSVLYNSRNKNSVA | WASTRES | SQYHRLPLS | 3.78 | 2/3 | 1/9 |
| KSSQSVLYYSRNKNSVA | WATTGES | QQYHRLPLS | no signal | 0/3 | 0/9 |
| KSSQSVLYVRRNKNDVA | WASTRES | QQYHRLPLS | no signal | 0/3 | 0/9 |
| KYSQSVLYESRSKNSVA | WASTRES | QIYHRLPLS | 2.22 | 3/3 | 0/9 |
| KSSQSVLCESRNKNSNA | WASTRES | QQYHKLPLS | 3.40 | 2/3 | 2/9 |
| KSSQSVTYESRNKNSVA | WACTRES | QQYHRLPHS | no signal | 0/3 | 0/9 |
| HSSQSVLYESRNKNSVA | WASKRES | QQYHRLPLH | 1.81 | 3/3 | 6/9 |
| KISQSVLYECRAKNSVA | WASTRES | QQYHRLPLS | 2.40 | 3/3 | 0/9 |
| KSSQSVLYMCRNKNSVA | WASTRLS | QQYHRLPLS | no signal | 0/3 | 0/9 |
| KCSQSVLYESRNKNSVA | WASTRNS | QQYDRLPLS | no signal | 0/3 | 0/9 |
| KSSQPVLYESRNKNSVA | WASWRES | QQYQRLPLS | 1.84 | 3/3 | 3/9 |
| KSSQSVHWESRNKNSVA | WASTRES | QQYHRLPKS | no signal | 0/3 | 0/9 |
| KSSQSVLSENRNFNSVA | WASTRES | QQYHRLPLS | 0.18 | 3/3 | 2/9 |
| KSSQSHLYESRNMNSVA | WASTRES | QQYARLPLS | no signal | 0/3 | 2/9 |
| KSPQSILYTSRNKNSVA | WASTRES | QQYHRLPLS | 4.73 | 1/3 | 0/9 |
| KSSQSVLYESRNKNFVA | WASTRES | WQYTRLPLS | no signal | 0/3 | 0/9 |

Further variants, results first:

| mean, log10 nM | detected | signal with controls | CDR-L1 | CDR-L2 | CDR-L3 |
|---|---|---|---|---|---|
| no signal | 0/3 | 0/9 | KSSQSVLYESRNKNSVA | WASTRES | QSYHLAPLS |
| no signal | 0/3 | 0/9 | KSSQSALYWSRNKNSVA | WASTRES | QQIHRLPLS |
| 5.20 | 1/3 | 1/9 | ISSQSVLYESRNKNSVA | WASTRRS | QQYHRMPLS |
| 3.42 | 1/3 | 2/9 | VSSQSVLYESRNKNSVA | WACTRES | QQYHRLWLS |
| 4.93 | 2/3 | 2/9 | KSSQSVLYESRNKNSVA | WYSTREC | QQYHRLCLS |
| 4.44 | 2/3 | 5/9 | RSSQSVLYEHRNKNSVD | WASTRES | QQYHRLPLS |
| 3.88 | 1/3 | 4/9 | KSSQSVLYESRNKNSVA | FASTRES | QQKHRGPLS |
| -0.25 | 3/3 | 8/9 | KSSMSVLYESRNLNSVA | DASTRES | QQYHRLPLS |
| no signal | 0/3 | 0/9 | KSSQSVLYESRSKNSRA | WASTRES | QQYHRLPLI |
| no signal | 0/3 | 3/9 | KSSQSVLYESRNANSVA | WASPRES | QQYHRHPLS |
| 3.87 | 2/3 | 2/9 | KSSQSVLYESRNKNSVA | WASTRES | QQRHRLFLS |
| 4.98 | 2/3 | 2/9 | KSSQEVLYESRNKNSVA | WASTRES | NQYHRLPLE |
| 3.84 | 2/3 | 3/9 | KSSMSVLYESRNKNSQA | WASTRES | QQYHRVPLS |
| 5.55 | 2/3 | 2/9 | KSSQSVLYESRNKNLVA | WASTRES | LQYHRLPLM |
| no signal | 0/3 | 0/9 | KSSQSVLYESRNKNSVA | WASTRNS | QQYHWLPVS |
| 2.00 | 3/3 | 5/9 | KSSQWVLYEPRNKNSVA | WASTREG | QQYHRLPLS |
| no signal | 0/3 | 1/9 | KSSQSVLYESRNKNSVN | WQSTRES | QQWHRLPLS |
| 1.12 | 3/3 | 4/9 | KSSQSVPYESGNKNSVA | WASTRES | QQYKRLPLS |
| no signal | 0/3 | 0/9 | KSSPSVLYHSRTKNSVA | WASTRES | QQYHRLPLS |
| 5.63 | 1/3 | 7/9 | KSSQSVLYESRNKRSWA | WASARES | QQYHRLPLS |
| 3.94 | 1/3 | 1/9 | KSSQHVLYESRCKNSVA | WASTRES | VQYHRLPLS |
| -0.18 | 3/3 | 0/9 | KSSQSVLYESLNKNSVA | EASTRES | FQYHRLPLS |
| no signal | 0/3 | 1/9 | KGSQSVLYESRNKNSVD | WASTRES | QQYHRIPLS |
| 1.51 | 3/3 | 0/9 | KSRQSVLYESRNKNSVA | WASTRES | QQYYRLPDS |
| 0.43 | 3/3 | 0/9 | KSSQSVDYESRNKNSVA | WASTREP | QQYHRLPLS |
| 1.76 | 3/3 | 0/9 | KSSFSVLYESRNKNSVA | WSSTREM | QQYHRLPLS |
| 3.15 | 1/3 | 0/9 | KSSQSVLYESRNPNSVA | WASTREM | QQYHWLPLS |
| no signal | 0/3 | 2/9 | KSSQSVLYSSRNKNYVA | WASTRES | QQTHRLPLS |
| no signal | 0/3 | 0/9 | KSSQSVLYESRNKNSVA | WAFTRCS | RQYHRLPLS |

Excerpt, the final 7 entries:

| CDR-L1 | CDR-L2 | CDR-L3 | mean, log10 nM | detected | signal with controls |
|---|---|---|---|---|---|
| KGSQSVLYESRNKNSVD | WASTRES | QQYHRIPLS | no signal | 0/3 | 1/9 |
| KSRQSVLYESRNKNSVA | WASTRES | QQYYRLPDS | 1.51 | 3/3 | 0/9 |
| KSSQSVDYESRNKNSVA | WASTREP | QQYHRLPLS | 0.43 | 3/3 | 0/9 |
| KSSFSVLYESRNKNSVA | WSSTREM | QQYHRLPLS | 1.76 | 3/3 | 0/9 |
| KSSQSVLYESRNPNSVA | WASTREM | QQYHWLPLS | 3.15 | 1/3 | 0/9 |
| KSSQSVLYSSRNKNYVA | WASTRES | QQTHRLPLS | no signal | 0/3 | 2/9 |
| KSSQSVLYESRNKNSVA | WAFTRCS | RQYHRLPLS | no signal | 0/3 | 0/9 |

For reference, the parent read 0.65 as the reference entry and 1.68 as a member of this library. Background: pairings of library AAYL50 with three empty control strains gave a value in 18% of cases (median 4.19, 5th percentile 2.99). Values in that range, when seen in few replicates, are hard to tell from nonspecific mating. For each scFv, signals with the empty controls are counted beside the result.

Values reported by Engelhart et al. 2022, doi:10.1038/s41597-022-01779-4 (FLAb copy).